Reference: patent publication US8575156B2, “Cyclic inhibitors of 11β-hydroxysteroid dehydrogenase 1” (Vitae Pharmaceuticals, Inc., priority 2007, dated 2013)
Read-outs that look alike come from different tables or passages of the source.

Protein sequences, listed by entry. Tags and fused reporters are not part of them. Lines headed by an entry give the natural chain unless they say otherwise; changes in a name come on top.
UniProt P28845: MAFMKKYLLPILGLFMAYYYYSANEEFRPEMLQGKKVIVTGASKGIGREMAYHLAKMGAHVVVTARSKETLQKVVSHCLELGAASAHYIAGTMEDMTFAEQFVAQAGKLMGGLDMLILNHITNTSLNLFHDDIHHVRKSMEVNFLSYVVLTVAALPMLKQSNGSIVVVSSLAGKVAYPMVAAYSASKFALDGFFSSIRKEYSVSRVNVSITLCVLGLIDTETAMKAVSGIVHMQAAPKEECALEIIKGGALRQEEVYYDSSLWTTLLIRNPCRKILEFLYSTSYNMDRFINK

Assays:
11β-HSD1 [1] = target: T1, 11β-HSD1 (Homo sapiens, UniProt P28845)
11β-HSD1 [2] = target: T1, 11β-HSD1; assay: biochemical; conditions: for inhibition at 0.1 µM: read-out: Average % inhibition at 100 nM; for IC50: IC50 Range; for inhibition at 0.1111 µM: read-out: Average % inhibition at 111.1 nM
[3] = Biological Test Example 1, microsomes from CHO cells overexpressing human 11β-HSD1

Row | IC50 (11β-HSD1 [2]; [3]) [nM] | Molecule | IC50 (11β-HSD1 [2]) [nM] | further results
1 | – | CC(O)C[C@]1(c2ccc(F)cc2)CCN([C@@H](C)c2ccc(-c3ccc(F)cc3F)cc2)C(=O)O1 (single isomer, unassigned) [EXAMPLE 137 Isomer 2] | – | Average % inhibition at 111.1 nM (11β-HSD1 [1]; 0.1111 µM): 95.5%; inhibition at 0.1 µM (11β-HSD1 [2]): 96.4%
2 | – | CC1(c2ccccc2)CCN(c2ccnc(-c3cccc(Cl)c3)n2)C(=O)O1 (centres unmarked) | 100 to 1000 | inhibition at 0.1111 µM (11β-HSD1 [2]): 15.5%
3 | – | COCC[C@]1(c2ccc(F)cc2)CCN([C@@H](C)c2ccc(-c3ccc(F)cc3F)cc2)C(=O)O1 [EXAMPLE 140, (S)-3-((S)-1-(2′,4′-difluorobiphenyl-4-yl)ethyl)-6-(4-fluorophenyl)-6-(2-methoxyethyl)-1,3-oxazinan-2-one] | < 100 | –
4 | < 100 | C[C@@H](c1ccc(Br)cc1)N1CC[C@](CCCN2CCCC2=O)(c2ccccc2)OC1=O [EXAMPLE 509, (R)-3-((S)-1-(4-bromophenyl)ethyl)-6-(3-(2-oxopyrrolidin-1-yl)propyl)-6-phenyl-1,3-oxazinan-2-one] | – | –
5 | – | (S)-3-((S)-1-(2′,4′-difluorobiphenyl-4-yl)propyl)-6-(4-fluorophenyl)-6-(2-hydroxyethyl)-1,3-oxazinan-2-one [EXAMPLE 175 Isomer 1] | – | Average % inhibition at 100 nM (11β-HSD1 [1]): 94.3%
6 | – | C=CC[C@]1(c2ccc(F)cc2)CCN(Cc2ccccc2CN2CCN(C)CC2)C(=O)O1 (stereo in doubt) | < 100 | –
7 | – | C=CCC1(c2ccc(F)cc2)CCN([C@@H](C)c2ccc(OC)cc2)C(=O)O1 (single isomer, unassigned) [EXAMPLE 193 Isomer 1] | – | inhibition at 0.1 µM (11β-HSD1 [2]): 95.6%
8 | – | C=CC[C@]1(c2ccc(F)cc2)CCN([C@@H](C)C2CCCCC2)C(=O)O1 (single isomer, unassigned) [EXAMPLE 120 Isomer 1] | < 100 | –
9 | – | CC(O)C[C@]1(c2ccc(F)cc2)CCN([C@@H](C)c2ccc(-c3ccc(F)cc3F)cc2)C(=O)O1 (single isomer, unassigned) [EXAMPLE 137 Isomer 1] | – | inhibition at 0.1111 µM (11β-HSD1 [2]): 96.7%
10 | < 100 | C[C@@H](c1ccc(C(C)(C)O)cc1)N1CC[C@](CCCO)(c2ccccc2)OC1=O [EXAMPLE 280, (R)-3-((S)-1-(4-(2-hydroxypropan-2-yl)phenyl)ethyl)-6-(3-hydroxypropyl)-6-phenyl-1,3-oxazinan-2-one] | – | –
11 | < 100 | C[C@@H](c1ccc(CCO)cc1)N1CC[C@](CCCO)(c2ccccc2)OC1=O [EXAMPLE 198, (R)-3-((S)-1-(4-(2-hydroxyethyl)phenyl)ethyl)-6-(3-hydroxypropyl)-6-phenyl-1,3-oxazinan-2-one] | – | –
12 | < 100 | C[C@@H](c1ccc(CO)cc1)N1CC[C@](CCCO)(c2ccccc2)OC1=O [EXAMPLE 194, (R)-3-((S)-1-(4-(hydroxymethyl)phenyl)ethyl)-6-(3-hydroxypropyl)-6-phenyl-1,3-oxazinan-2-one] | – | –
13 | – | C=CC[C@@]1(c2ccc(F)cc2)CCN([C@@H](C)C2CCCCC2)C(=O)O1 (single isomer, unassigned) [EXAMPLE 120 Isomer 2] | < 100 | –
14 | < 100 | C[C@@H](c1ccc(Br)cc1)N1CC[C@](CCCN2CCCS2(=O)=O)(c2ccccc2)OC1=O [EXAMPLE 516, (R)-3-((S)-1-(4-bromophenyl)ethyl)-6-(3-(1,1-dioxo-isothiazolidin-2-yl)propyl)-6-phenyl-1,3-oxazinan-2-one] | – | –
15 | – | C=CCC1(c2ccc(F)cc2)CCN([C@@H](C)c2ccc(OC)cc2)C(=O)O1 (single isomer, unassigned) [EXAMPLE 193 Isomer 2] | – | Average % inhibition at 100 nM (11β-HSD1 [1]; 0.1 µM): 94.3%
